# Target: FLAG-tagged PDE2A1 (amino acids 2-941) (Homo sapiens (Human), UniProt O00408)
# Sequences of proteins named here, by UniProt entry; tags and fusion partners are left off. Residues count along the entry.
# UniProt O00408, 2-941: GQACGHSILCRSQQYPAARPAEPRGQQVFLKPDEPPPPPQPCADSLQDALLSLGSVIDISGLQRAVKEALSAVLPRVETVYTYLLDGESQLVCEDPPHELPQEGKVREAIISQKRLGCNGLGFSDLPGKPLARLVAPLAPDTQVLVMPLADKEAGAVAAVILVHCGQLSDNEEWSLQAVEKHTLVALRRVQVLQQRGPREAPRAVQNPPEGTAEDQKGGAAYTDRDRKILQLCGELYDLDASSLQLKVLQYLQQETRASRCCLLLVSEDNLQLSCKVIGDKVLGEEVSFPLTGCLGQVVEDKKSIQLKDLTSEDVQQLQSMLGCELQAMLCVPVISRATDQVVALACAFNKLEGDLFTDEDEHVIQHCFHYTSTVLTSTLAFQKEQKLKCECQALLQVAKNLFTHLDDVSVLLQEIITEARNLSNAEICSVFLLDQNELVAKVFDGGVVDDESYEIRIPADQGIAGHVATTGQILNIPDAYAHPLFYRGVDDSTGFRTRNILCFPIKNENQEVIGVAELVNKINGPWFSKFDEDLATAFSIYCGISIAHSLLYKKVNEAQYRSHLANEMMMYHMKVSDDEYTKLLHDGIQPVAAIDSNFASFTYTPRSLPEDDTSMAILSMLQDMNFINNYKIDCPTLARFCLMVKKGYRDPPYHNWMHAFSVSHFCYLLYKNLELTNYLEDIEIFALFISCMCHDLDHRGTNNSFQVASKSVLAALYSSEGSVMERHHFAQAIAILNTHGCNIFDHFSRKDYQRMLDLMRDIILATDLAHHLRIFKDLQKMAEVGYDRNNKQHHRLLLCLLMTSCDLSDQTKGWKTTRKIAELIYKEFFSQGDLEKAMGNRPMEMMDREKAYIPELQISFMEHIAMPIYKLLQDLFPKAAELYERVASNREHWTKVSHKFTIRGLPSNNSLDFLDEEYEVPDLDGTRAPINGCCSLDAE
# Test: IMAP TR-FRET PDE2A phosphodiesterase enzymatic assay
# Details: not given
row,SMILES,IC50
1,"Cc1cc(C2CCCN(Cc3ccccc3-n3cccn3)C2)n2ncnc2n1 (stereo not drawn) [Example 61, 3-{5-Methyl-[1,2,4]triazolo[1,5-a]pyrimidin-7-yl}-1-{[2-(1H-pyrazol-1-yl)phenyl]methyl}piperidine]",> 10 µM
2,"Cc1cc(C2CCCN(Cc3ccccc3)C2)n2ncnc2n1 (stereo not drawn) [Example 78, 1-Benzyl-3-{5-methyl-[1,2,4]triazolo[1,5-a]pyrimidin-7-yl}piperidine]",> 10 µM
3,"Cc1cc(C2CCCN(Cc3cnn(-c4ccccc4)c3)C2)n2ncnc2n1 (stereo not drawn) [Example 58, 3-{5-Methyl-[1,2,4]triazolo[1,5-a]pyrimidin-7-yl}-1-[(1-phenyl-1H-pyrazol-4-yl)methyl]piperidine]",> 10 µM

# Same assay, conditions: IMAP TR-FRET, 200 nM FAM-cAMP substrate, 11-point half-log dose-response
row,SMILES,PDE2 (pIC50)
1,"Cc1cc(C2CN(C(=O)c3cc(Cl)cc(Cl)c3)CC(F)(F)C2)n2ncnc2n1 (stereo not drawn) [Example 233, 1-[(3,5-Dichlorophenyl)carbonyl]-3,3-difluoro-5-{5-methyl-[1,2,4]triazolo[1,5-a]pyrimidin-7-yl}piperidine]",>7
2,"Cc1cc(C2CN(C(=O)c3cccc(Cl)c3)CC(F)(F)C2)n2ncnc2n1 (stereo not drawn) [Example 232, 1-[(3-Chlorophenyl)carbonyl]-3,3-difluoro-5-{5-methyl-[1,2,4]triazolo[1,5-a]pyrimidin-7-yl}piperidine]",>7
3,"Cc1cc(C2CCCN(C(=O)C3COc4ccccc4C3)C2)n2ncnc2n1 (stereo not drawn) [Example 352, 1-[(3,4-Dihydro-2H-1-benzopyran-3-yl)carbonyl]-3-{5-methyl-[1,2,4]triazolo[1,5-a]pyrimidin-7-yl}piperidine]",>7

# From patent US11186582B2, “Substituted [1,2,4]triazolo[1,5-a]pyrimidin-7-yl compounds as PDE2 inhibitors” (DART NEUROSCIENCE (CAYMAN) LTD., priority 2014, dated 2021)
